The assay deals with Prothrombin (Homo sapiens, UniProt P00734). As to the kind of experiment: Binding affinity against human thrombin.

As usually defined, the Ki is the equilibrium dissociation constant of an inhibitor or competing ligand from its target. In the case of `CS(=O)(=O)N[C@@H](C(=O)N1CCC[C@H]1C(=O)NCc1csc(CN)c1)C(c1ccccc1)c1ccccc1`, the Ki amounted to 5.3 nM.

The record behind these values is ChEMBL document CHEMBL1135262, “Noncovalent tripeptidic thrombin inhibitors incorporating amidrazone, amine and amidine functions at P1” (Bioorg Med Chem Lett, 2002).
